Marks after values point to notes of the source that are not given here.
Tests used:
human 5-HT2A receptor = human 5-HT2A receptor (Homo sapiens (Human), UniProt P28223); details: read-out: 5-HT2A receptor binding inhibition constant Ki
[1] = biological target: serotonin 5-HT2A receptor (Rattus norvegicus (Rat), UniProt P14842); test: Rat tryptamine-induced forelimb clonic convulsion model; format: in vivo; details: orally or subcutaneously 60 minutes before tryptamine 25 mg/kg intravenously, SD-male rats

Row | Compound | Ki (human 5-HT2A receptor) | Inhibition ratio ([1]; dose 10 mg/kg) | Inhibition ratio ([1]; dose 20 mg/kg) | Inhibition ratio ([1]; dose 30 mg/kg)
1 | CNCc1cc(OCc2cc(Cl)ccc2F)n(CC2CC2)n1 [Example 131, 1-{5-[(5-chloro-2-fluorobenzyl)oxy]-1-(cyclopropylmethyl)-1H-pyrazol-3-yl}-N-methylmethanamine] | 3 nM | – | – | –
2 | CNCc1cc(OCc2cc(F)ccc2F)n(CCC(C)C)n1 [Example 269, 1-{5-[(2,5-difluorobenzyl)oxy]-1-(3-methylbutyl)-1H-pyrazol-3-yl}-N-methylmethanamine] | 1.5 nM | – | – | –
3 | CNCc1cc(OCc2cc(F)ccc2F)n(CC(C)(C)C)n1 [Example 258, 1-{5-[(2,5-difluorobenzyl)oxy]-1-(2,2-dimethylpropyl)-1H-pyrazol-3-yl}-N-methylmethanamine] | 7.5 nM | – | – | –
4 | CNCc1cc(OCc2cc(F)ccc2F)n(CCC(C)(C)C)n1.O=C(O)CC(O)(CC(=O)O)C(=O)O [Example 502, 1-{5-[(2,5-Difluorobenzyl)oxy]-1-(3,3-dimethylbutyl)-1H-pyrazol-3-yl}-N-methylmethanamine Monocitrate] | – | 45%* | 65%** | 84%**
